Assays:
SH-SY5Y cells = test: Cytoprotection against H2O2 (100 µM), MTT
supercoiled pUC19 DNA = settings: 100 µM, IC50 of A549, IC50 of HT-29; human Topoisomerase I

Row | SMILES | Cytoprotection against H2O2 (SH-SY5Y cells; 6.79 µM) [%] | Cytoprotection against H2O2 (SH-SY5Y cells; 13.58 µM) [%] | Intercalation: supercoiled pUC19 DNA band (in words) (supercoiled pUC19 DNA)
1 | O=C(NCCCCNc1c2c(nc3ccccc13)CCCC2)c1ccccc1I [Compound 1c] | 89.47 | 28.45 | best intercalative potential at concentrations of 100 µM and 59.12 µM
2 | O=C(NCCCCNc1c2c(nc3ccccc13)CCCC2)c1ccc(I)cc1 [Compound 1i] | – | – | did not have any bands at supercoiled level

Reference: PMC6745035, “Novel tetrahydroacridine derivatives with iodobenzoic moieties induce G0/G1 cell cycle arrest and apoptosis in A549 non-small lung cancer and HT-29 colorectal cancer cells” (Molecular and Cellular Biochemistry, 2019)
